Source: PMC10954796 (2024)

Tests used:
Assay in all cases: microscale thermophoresis
pS8-Aβ42 = pS8-Aβ42 (Homo sapiens, phosphoSer8)
Aβ17-42 = target: T1, Aβ17-42 (Homo sapiens)
T1 chain: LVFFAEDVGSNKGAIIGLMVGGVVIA

Aβ42 = Aβ42 (Homo sapiens)

B1: sRAGE ECD (protein)
chain: AQNITARIGEPLVLKCKGAPKKPPQRLEWKLNTGRTEAWKVLSPQGGGPWDSVARVLPNGSLFLPAVGIQDEGIFRCQAMNRNGKETKSNYRVRVYQIPGKPEIVDSASELTAGVPNKVGTCVSEGSYPAGTLSWHLDGKPLVPNEKGVSVKEQTRRHPETGLFTLQSELMVTPARGGDPRPTFSCSFSPGLPRHRALRTAPIQPRVWEPVPLEEVQLVVEPEGGAVAPGGTVTLTCEVPAQPSPQIHWMKDGVPLPLPPSPVLILPEIGPQDQGTYSCVATHSSHGPQESRAVSISIIEPGEEGPTAGSVGGSGLGTLA
Question: With B1 as the binder, how does the Kd (pS8-Aβ42) read?
Answer: The Kd was 7 µM.

Question: And the Kd (Aβ17-42)?
Answer: Its Kd is 10 µM.

Question: What about the Kd (Aβ42) of the same binder?
Answer: Its Kd is 1 µM.
